Among the data in article PMC4831024 are response values, retold here.

The target of the experiment is Ku70/Ku80ΔC heterodimer, P12956;P13010. The experiment can be described thus: fluorescence polarisation. As to conditions: read at the highest Ku concentration, about 16 µM KuΔC; 100 nM fluorescein-labeled peptide; room temperature; 20 mM HEPES pH 7.5, 200 mM NaCl, 0.5 mM TCEP; parent: est. 300; read off a plot. In general terms: In fluorescence polarisation assays a small probe gives low polarisation when free and higher when bound to something large.

With “fluorescein-labelled MRI-A peptide (APLF-like KBM of MRI) W16A”, the response is 15 millidegrees.
